Literature values in paper PMC8049364, “Quantification of Macrophage-Driven Inflammation During Myocardial Infarction with ^18F-LW223, a Novel TSPO Radiotracer with Binding Independent of the rs6971 Human Polymorphism” (Journal of Nuclear Medicine, 2021).

Conditions: cited from earlier work

2-[F-18]fluoro-2-deoxy-D-glucose
dosimetry (effective dose): 0.029 mSv/MBq
